Source: patent US6673827B1, “Methods of treating fungal infections with inhibitors of NAD synthetase enzyme” (priority 1999, dated 2004)

Protein sequences, listed by entry. Tags and fused reporters are not part of them.
UniProt P08164, whole entry: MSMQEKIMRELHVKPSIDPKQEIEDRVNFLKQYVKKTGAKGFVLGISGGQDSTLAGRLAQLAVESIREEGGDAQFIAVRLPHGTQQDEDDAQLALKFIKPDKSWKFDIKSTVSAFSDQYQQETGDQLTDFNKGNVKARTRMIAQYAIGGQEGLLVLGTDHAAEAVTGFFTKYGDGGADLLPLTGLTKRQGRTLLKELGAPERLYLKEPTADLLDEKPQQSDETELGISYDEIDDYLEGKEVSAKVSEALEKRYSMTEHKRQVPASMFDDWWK

Molecular target: NAD synthetase (recombinant protein from B. subtilis; purified) (Bacillus subtilis, UniProt P08164)
Assay: NAD synthetase enzyme inhibition assay (coupled enzymatic assay, HTS)
Type: biochemical
Conditions: table of structures used in the yeast assay (Example 4); tested form: iodide

C[n+]1c2c(cc3ccccc31)C(=O)OCCCCCCCCn1cc-2c2cc(OCc3ccccc3)ccc21
IC50 (μg/mL) for Inhibit. of NAD Synthetase: 66 µg/mL
